Here are results for 8 compounds from US12116355B2, “Deuterated 1-piperazino-3-phenyl indanes for treatment of schizophrenia” (H. Lundbeck A/S, priority 2011, dated 2024).

Chains of the proteins cited; added tags and fusions are not shown. A line that says so, or that is headed by a name, gives the form on record, which may keep a tag or linker.
UniProt P14416, other isoform, or with tags, fused parts or gaps: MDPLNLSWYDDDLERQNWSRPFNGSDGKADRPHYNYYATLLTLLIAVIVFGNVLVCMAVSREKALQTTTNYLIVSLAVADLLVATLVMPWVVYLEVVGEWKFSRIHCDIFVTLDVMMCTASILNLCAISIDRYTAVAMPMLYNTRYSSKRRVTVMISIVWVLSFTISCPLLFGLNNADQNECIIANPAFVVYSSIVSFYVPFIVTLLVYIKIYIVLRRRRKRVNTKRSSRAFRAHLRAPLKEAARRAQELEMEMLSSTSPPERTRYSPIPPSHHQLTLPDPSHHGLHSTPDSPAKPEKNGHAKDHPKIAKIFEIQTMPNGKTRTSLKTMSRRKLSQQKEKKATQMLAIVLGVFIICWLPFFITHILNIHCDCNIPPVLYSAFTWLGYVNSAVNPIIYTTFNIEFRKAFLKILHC
UniProt P14416, whole entry: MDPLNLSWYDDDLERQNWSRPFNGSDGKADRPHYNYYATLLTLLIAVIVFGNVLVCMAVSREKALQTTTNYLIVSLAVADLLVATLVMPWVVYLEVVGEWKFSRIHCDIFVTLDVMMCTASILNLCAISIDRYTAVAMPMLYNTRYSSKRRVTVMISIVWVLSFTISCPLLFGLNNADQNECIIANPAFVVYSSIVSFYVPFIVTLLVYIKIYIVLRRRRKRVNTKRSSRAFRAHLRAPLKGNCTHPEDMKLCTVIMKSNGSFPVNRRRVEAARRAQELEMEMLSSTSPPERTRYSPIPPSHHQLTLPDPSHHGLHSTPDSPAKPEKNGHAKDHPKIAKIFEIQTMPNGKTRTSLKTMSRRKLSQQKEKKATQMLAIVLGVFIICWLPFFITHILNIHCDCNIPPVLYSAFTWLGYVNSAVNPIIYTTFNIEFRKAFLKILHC

Like-named read-outs stand apart in the source and are kept apart here.

In experiment [1] the target is T1, human D2 receptor (Homo sapiens (Human), UniProt P14416). Briefly: Alternative human D2 receptor binding (Cerep, side-by-side).
The target of experiment [2] is T1, human D2 receptor. It counts as binding.

Usually Ki stands for the equilibrium dissociation constant of an inhibitor or competing ligand from its target. Regarding `[2H]c1c([2H])c([2H])c([C@@H]2C[C@@H](N3CCN(C)C(C)(C)C3)c3cc(Cl)ccc32)c([2H])c1[2H]` (single isomer, unassigned) [Compound (II)], the Ki on human D2 receptor [1] stood at 6.8 nM.

On human D2 receptor [1], `[2H]C1([2H])CN([C@@H]2C[C@@H](c3ccccc3)c3ccc(Cl)cc32)CC(C)(C)N1C` (single isomer, unassigned) [Compound (III)] yielded a Ki of 7.6 nM.

The compound `[2H]c1c([2H])c([2H])c([C@@H]2C[C@@H](N3CCN(C([2H])([2H])[2H])C(C)(C)C3)c3cc(Cl)ccc32)c([2H])c1[2H]` (single isomer, unassigned) [Compound (IV)] yielded a Ki on human D2 receptor [1] of 10 nM.

On human D2 receptor [1], `[2H]C([2H])([2H])N1C([2H])([2H])CN([C@@H]2C[C@@H](c3ccccc3)c3ccc(Cl)cc32)CC1(C)C` (single isomer, unassigned) [Compound (V)] displayed a Ki of 4.8 nM.

Compound `[2H]c1c([2H])c([2H])c([C@@H]2C[C@@H](N3CC([2H])([2H])N(C([2H])([2H])[2H])C(C)(C)C3)c3cc(Cl)ccc32)c([2H])c1[2H]` (single isomer, unassigned) [Compound (VI)] displayed a Ki at human D2 receptor [1] of 3.7 nM.

In the case of `[2H]c1c([2H])c([2H])c([C@@H]2C[C@@H](N3CC([2H])([2H])N(C)C(C)(C)C3)c3cc(Cl)ccc32)c([2H])c1[2H]` (single isomer, unassigned) [Compound (VII)], at human D2 receptor [1], affinity was put at a Ki of 5.2 nM.

For `[2H]C([2H])([2H])N1CCN([C@@H]2C[C@@H](c3ccccc3)c3ccc(Cl)cc32)CC1(C)C` [Compound (I), 4-((1R,3S)-6-chloro-3-phenyl-indan-1-yl)-1-methyl-d3-2,2-dimethyl-piperazine], the Ki at human D2 receptor [1] (read-out: alternative human D2 receptor binding (Ki), Cerep side-by-side analysis) is 7.6 nM; on human D2 receptor [2] (read-out: D2: Ki log mean (converted)), 34 nM. At human D2 receptor [2] (printed as pKi, numerically log10 of Ki in nM), the “D2: pKi” value came to 1.54±0.11.

As for `CN1CCN([C@@H]2C[C@@H](c3ccccc3)c3ccc(Cl)cc32)CC1(C)C` [Compound (X), 4-((1R,3S)-6-Chloro-3-phenyl-indan-1-yl)-1,2,2-trimethyl-piperazine], the Ki on human D2 receptor [1] (Cerep side-by-side analysis, read-out: alternative human D2 receptor binding (Ki)) is 7 nM.
